This passage reports IC50 results from ChEMBL document CHEMBL2046351, “Discovery of cyclic sulfone hydroxyethylamines as potent and selective β-site APP-cleaving enzyme 1 (BACE1) inhibitors: structure-based design and in vivo reduction of amyloid β-peptides” (J Med Chem, 2012).

Chains of the proteins cited; added tags and fusions are not shown. Lines headed by an entry give the natural chain unless they say otherwise; changes in a name come on top.
UniProt P56817: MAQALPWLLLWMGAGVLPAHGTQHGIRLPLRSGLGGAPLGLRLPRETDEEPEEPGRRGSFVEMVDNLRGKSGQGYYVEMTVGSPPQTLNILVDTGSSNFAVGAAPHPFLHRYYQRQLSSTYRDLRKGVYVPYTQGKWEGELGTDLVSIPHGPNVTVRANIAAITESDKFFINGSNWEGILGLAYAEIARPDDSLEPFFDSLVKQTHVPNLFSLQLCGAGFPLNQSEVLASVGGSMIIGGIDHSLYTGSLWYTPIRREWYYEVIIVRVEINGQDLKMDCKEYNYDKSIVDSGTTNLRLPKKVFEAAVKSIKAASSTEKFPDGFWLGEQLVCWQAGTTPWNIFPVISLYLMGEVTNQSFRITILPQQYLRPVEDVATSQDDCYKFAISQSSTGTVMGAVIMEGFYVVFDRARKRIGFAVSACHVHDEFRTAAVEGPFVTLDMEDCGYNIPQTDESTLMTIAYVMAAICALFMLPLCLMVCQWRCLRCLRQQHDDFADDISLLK

Structures are written as SMILES.

In the assay the target is Beta-secretase 1 (Homo sapiens, UniProt P56817).

The IC50 is the concentration needed to halve the response being measured. Read a high IC50 as a need for much substance. `CC(C)(C)c1cccc(CN[C@H]2CS(=O)(=O)C[C@@H](Cc3cc(F)c4c(c3)C3(CCC(F)(F)CC3)CN4)[C@@H]2O)c1` (racemic) gave an IC50 of 140 nM.
